From US6340696B1, “Viral treatment” (The Procter & Gamble Company, priority 1999, dated 2002)

Experiments:
BVDV = BVDV antiviral assay in MDBK cells, XTT readout of inhibition of virus-induced cell killing; type: cell-based
Protocol: (§1) Madin-Darby bovine kidney (MDBK) cells were passaged in T-75 flasks for use in the assay. On the day preceding the assay, the cells were trypsinized, pelleted, counted and resuspended at 6×10^4/well in tissue culture medium. Cells were added to 96 well flat bottom plates in a volume of 100 μl per well.
A pretitered aliquot of virus is removed from the freezer (−80° C.) and allowed to thaw slowly to room temperature in a biological safety cabinet. The virus is diluted into tissue culture medium such that the amount of virus added to each well in a volume of 100 μl will be the amount determined to give complete cell killing at 6 days post-infection.
(§2) Interferon was purchased from PBL Biomedical Laboratories (New Brunswick, N.J.) and was in PBS solutions. On the day of testing, the drug stock is diluted in the medium to the desired high concentration and then further diluted in the medium in half log series.
The day following plating of cells, plates are removed from the incubator, and medium is removed and discarded. Drug dilutions are added to appropriate wells of the microtiter plate in a volume of 100 μl per well. Each dilution is set up in triplicate. Complete medium or complete medium containing appropriately diluted virus is added to appropriate wells in a volume of 100 μl per well.
The format of the test plate has been standardized. Each plate contains cell control wells (cell only), virus control wells (cells plus virus), drug toxicity control wells (cells plus drug only), drug colorimetric control wells (drug only) as well as experimental wells (drugs plus cells plus virus).
(§3) The cell viability was evaluated by a dye (XTT) uptake procedure. XTT-tetraolium is metabolized by the mitochontrial enzymes of metabolically active cells to a soluble formazan product, allowing the rapid quantitative analysis of the inhibition of virus-induced cell killing by antiviral test substances.
XTT solution was prepared daily as a stock of 1 mg/ml in PBS. Phenazine methosulfate (PMS) solution was prepared at 15 mg/ml in PVBS and stored in the dark at −20° C. STT/PMS stock was prepared immediately before use by diluting PMS 1:100 into PBS and adding 40 μl per ml of XTT solution. Fifty microliters of XTT/PMS was added to each well of the plate (each well had been loaded with 100 μl fresh medium) and the plate was reincubated for 4 hours at 37° C.
Adhesive plate sealers were used in place of the lids, the sealed plate was inverted several times to mix the soluble formazan product and the plate was read spectrophotometrically at 450 nm (XTT) with a Molecular Devices Vmax plate reader.
The efficacy and toxicity of inteferons are analyzed using a computer program (developed by Southern Research Institute) which calculates % CPE reduction, % cell viability, IC25,50 & 95, TC5,50 & 95 and other indices.
Combination effects are analyzed statistically by Prichard and Shipman method. Effects of the drug combination on efficacy and toxicity are calculated based on the activity or toxicity of the two compounds when tested alone. The expected additive inhibition rate of virus production or the expected additive cell viability rate subtracted from the experimentally determined inhibition rate or viability rate at each combination concentration results in a positive value (synergy), a negative value (antagonism), or zero (addivity).

[1] = tested on: Madin-Darby bovine kidney (MDBK) cells
Protocol: as §1, §2
The day following plating of cells, plates are removed from the incubator, and medium is removed and discarded. Drug dilutions are added to appropriate wells of the microtiter plate in a volume of 100 μl per well. […]
as §3, with “substances. […]” for “substances.”
Adhesive plate sealers were used in place of the lids, the sealed plate was inverted several times to mix the soluble formazan product and the plate was read spectrophotometrically at 450 nm (XTT) with a Molecular Devices Vmax plate reader. […]
Combination effects are analyzed statistically by Prichard and Shipman method. […]

INF-αA: human IFN-α species A, purchased from PBL Biomedical Laboratories
IC50 (BVDV; BVDV in MDBK cells): 2.54 U/ml
Antiviral Percentage Inhibition (BVDV; Compound conc 0, INF-αA conc 0.06): 3.1%
Antiviral Percentage Inhibition (BVDV; Compound conc 0, INF-αA conc 0.19): 0%
Antiviral Percentage Inhibition (BVDV; Compound conc 0, INF-αA conc 0.601): 0%
Antiviral Percentage Inhibition (BVDV; Compound conc 0, INF-αA conc 1.899): 6.3%
Antiviral Percentage Inhibition (BVDV; Compound conc 0, INF-αA conc 6): 11.2%
Antiviral Percentage Inhibition (BVDV; Ribavirin conc 0, INF-αA conc 0.06): 0%
Antiviral Percentage Inhibition (BVDV; Ribavirin conc 0, INF-αA conc 0.19): 0%
Antiviral Percentage Inhibition (BVDV; Ribavirin conc 0, INF-αA conc 0.601): 0%
Antiviral Percentage Inhibition (BVDV; Ribavirin conc 0, INF-αA conc 1.899): 5.8%
Antiviral Percentage Inhibition (BVDV; Ribavirin conc 0, INF-αA conc 6): 15.3%
TI (BVDV; TC50/IC50): >124.22
Comments (BVDV; activity against BVDV / toxicity): Active/Nontoxic
TC50 [1]: >316.00 U/ml
